Measurements as given in US20230146870A1, “METHOD TO QUANTIFY AFFINITY AND SELECTIVITY OF SMALL MOLECULES FOR PROTEINS IN LIVING CELLS” (Ohio State Innovation Foundation, priority 2021, published 2023).

System: microtubule network of HeLa cells (mScarlet-α-Tubulin)
Assay: Confocal microscopy of HeLa cells transfected with mScarlet-α-Tubulin
Format: cell-based
Details: 1 h at 37° C.

COc1cc2c(c(OC)c1OC)-c1ccc(OC)c(=O)cc1[C@@H](NC(C)=O)CC2 [colchicine]
fluorescent microtubule phenotype: disrupted the microtubule network
